Experimental findings from PubChem BioAssay AID493160 (Sanford-Burnham Center for Chemical Genomics, 2011) are described below.

Sequences of proteins named here, by UniProt entry; tags and fusion partners are left off.
UniProt Q2TB90, whole entry: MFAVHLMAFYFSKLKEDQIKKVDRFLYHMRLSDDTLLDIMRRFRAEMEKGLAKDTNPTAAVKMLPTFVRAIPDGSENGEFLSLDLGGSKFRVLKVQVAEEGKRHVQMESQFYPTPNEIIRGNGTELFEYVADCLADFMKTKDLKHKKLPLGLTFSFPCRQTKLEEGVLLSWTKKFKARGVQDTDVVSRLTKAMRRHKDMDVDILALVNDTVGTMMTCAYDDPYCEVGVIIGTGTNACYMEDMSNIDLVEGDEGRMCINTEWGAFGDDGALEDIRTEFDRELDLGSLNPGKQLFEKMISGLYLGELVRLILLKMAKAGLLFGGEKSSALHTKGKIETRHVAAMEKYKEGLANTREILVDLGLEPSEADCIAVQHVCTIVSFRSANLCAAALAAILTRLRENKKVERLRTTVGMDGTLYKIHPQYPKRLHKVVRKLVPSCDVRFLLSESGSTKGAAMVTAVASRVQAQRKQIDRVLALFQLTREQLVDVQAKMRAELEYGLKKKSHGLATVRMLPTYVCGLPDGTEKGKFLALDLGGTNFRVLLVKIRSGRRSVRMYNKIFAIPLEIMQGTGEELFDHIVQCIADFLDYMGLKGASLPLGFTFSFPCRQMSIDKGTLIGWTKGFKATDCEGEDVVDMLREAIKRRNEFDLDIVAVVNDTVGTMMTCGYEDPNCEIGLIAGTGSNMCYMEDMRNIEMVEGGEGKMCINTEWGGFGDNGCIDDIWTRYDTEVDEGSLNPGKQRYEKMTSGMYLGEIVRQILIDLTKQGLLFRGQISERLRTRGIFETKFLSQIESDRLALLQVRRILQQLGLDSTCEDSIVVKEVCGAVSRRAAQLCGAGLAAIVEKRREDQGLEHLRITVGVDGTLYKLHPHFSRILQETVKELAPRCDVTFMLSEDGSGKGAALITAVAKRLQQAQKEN

This is a selection; strong and weak results do not stand in their true shares. The source made the active and inactive calls.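 Rule for the calls: active = inhibition above about 35% when tested at 20 µM (limit read from the data); inactive = the rest.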

In this assay the target is Hexokinase HKDC1 (Homo sapiens) (UniProt Q2TB90). Description: HKDC1 hexokinase inhibitors, primary screen, biochemical, fluorescence, uHTS (AID 493160).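 Note: plate controls were DMSO wells with enzyme for no effect and DMSO wells lacking enzyme for full effect.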 Conditions: recombinant HKDC1, G6PDH/diaphorase resazurin coupled fluorescence; at 20 µM; hits give high values. A general note: The colour change of resazurin is a common sign of viable cells or microbes.
For `CCC(=O)N(c1ccccc1)C1(COC)CCN(CCc2cccs2)CC1`, the inhibition was inactive: -0.88%. Under `CCC(=O)N(c1ccccc1)C1(COC)CCN(CCn2nnn(CC)c2=O)CC1` stands inactive: 2.51%.

A word on the inhibition: it is the drop in the measured response relative to a control, in per cent.
